Laboratory results as given in ChEMBL document CHEMBL1158408, “Large-scale application of high-throughput molecular mechanics with Poisson-Boltzmann surface area for routine physics-based scoring of protein-ligand complexes” (J Med Chem, 2009).
pKi: −log10 of the molar value.

biological target: T1, Tyrosine-protein phosphatase non-receptor type 1 (Homo sapiens, UniProt P18031)
T1 sequence (P18031 whole entry): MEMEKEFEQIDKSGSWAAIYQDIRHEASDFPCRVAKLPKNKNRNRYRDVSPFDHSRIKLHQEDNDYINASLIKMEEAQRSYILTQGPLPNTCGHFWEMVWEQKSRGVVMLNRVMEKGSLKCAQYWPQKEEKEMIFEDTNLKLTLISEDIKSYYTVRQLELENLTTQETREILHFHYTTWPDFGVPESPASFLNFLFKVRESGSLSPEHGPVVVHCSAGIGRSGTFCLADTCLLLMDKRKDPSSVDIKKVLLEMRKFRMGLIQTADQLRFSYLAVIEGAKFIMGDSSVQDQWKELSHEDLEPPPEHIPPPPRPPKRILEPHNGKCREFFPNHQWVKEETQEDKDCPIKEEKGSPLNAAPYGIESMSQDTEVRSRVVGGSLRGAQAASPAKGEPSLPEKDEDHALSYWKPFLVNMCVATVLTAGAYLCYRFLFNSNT

Structure (SMILES)	pKi
CCc1cc(CC(NC(C)=O)C(=O)NCCCCOc2cccc(O)c2C(=O)OC)ccc1N(C(=O)C(=O)O)c1ccccc1C(=O)O (centres undefined)	7.90
CCCCCNC(=O)[C@H](Cc1ccc(N(C(=O)C(=O)O)c2ccccc2C(=O)O)c(/C=C/C(N)=O)c1)NS(C)(=O)=O	6.60
CCCCCNC(=O)C(Cc1ccc(N(C(=O)C(=O)O)c2ccccc2C(=O)O)c2ccccc12)NC(C)=O (centres undefined)	6.20

biological target: Urokinase-type plasminogen activator (Homo sapiens, UniProt P00749)

Structure (SMILES)	pKi
CC(C)C1=NCCc2ccc(C3CC3c3ccc4cc(C(=N)N)ccc4c3)cc21 (centres undefined)	6.90
COc1ccc2ccc(C(=N)N)cc2c1-c1ccco1	5.70

The remaining lines, values ahead:

pKi	Structure (SMILES)
5.70	N=C(N)c1ccc2cc(-c3ccc(N)cc3)ccc2c1
5.80	COc1ccc2ccc(C(=N)N)cc2c1Nc1ccccc1
6.10	N=C(N)c1ccc2cc(/C=C/c3ccc(C(O)CO)cc3)ccc2c1 (centres undefined)
6.40	N=C(N)c1ccc2cc(C#Cc3ccc(CCN)cc3)ccc2c1
